Data published in US8425997B2, “Cobalt bearing polymeric compositions” (Umicore, priority 2008, dated 2013).

Experiment: Aqueous solubility (leaching) of Co, OECD-105 flask method
Format: physicochemical
Protocol: Experiments are performed to determine the aqueous solubility of the Co in the invented polymers. These tests are relevant as indicators for the bioavailability of Co.
[…] The leaching tests are conducted according to the OECD-105 standard flask method, as described in the OECD Guideline for the Testing of Chemicals, adopted on 27 Jul. 1995, and in the Official Journal of the European Communities L 383 A, 54-62 (1992).
The solubility of 3 typical polymers according to the invention is compared to that of 3 commercial products.

Q: Which “Solubility of Co in 0.9% NaCl solution, Co” value (solvent: 0.9% NaCl) does the source give for Co-boro-neo-decanoate here?
A: 1080 mg/L

Q: What about the “Solubility of Co in water, Co” value (solvent: water) of the same substance?
A: 990 mg/L
